Where “and” joins values, the source holds several entries; their conditions need not be identical. Equal values may be shown once. The entries are a selection whose mix differs from that of the whole data set. Calls of active or inactive are those of the source. Calls follow the shape of the dose curve; as a rule, active = well fitted inhibition curve with a large enough effect; inconclusive = small, poorly fitted or top-dose-only effect, or effect the other way; inactive = flat fitted curve, though single readings scatter.
molecular target: Protein phosphatase EYA2 (Homo sapiens) (UniProt O00167); assay: qHTS Assay for Inhibitors of the Phosphatase Activity of Eya2; conditions: recombinant Eya2, OMFP fluorescence dephosphorylation (OMFP is methylfluorescein phosphate); at 76.9 µM (top of the series) unless noted
Text: The Eya family of proteins are essential co-activators of the Six1 transcription factor. Six1 is a developmental gene that is abnormally re-expressed in a large percentage of breast cancers. This over-expression plays a causal role in the initiation and metastatic development of breast cancers. The Eya family of proteins was also found to contain a unique HAD phosphatase domain with protein tyrosine phosphatase activity which can potentially play a role in Six1-mediated breast tumorigenesis. […] We have developed and optimized a 1536 well fluorescence-based HTS assay targeting the phosphatase activity of Eya2. Inhibitors found against Eya2 could serve as potential therapeutic tools to inhibit Six1-mediated breast tumorigenesis and to increase the efficiency of radiation and certain chemo therapy. These inhibitors could also be used as chemical probes to study the function of Eya2's phosphatase activity and its role in Six1-mediated breast tumorigenesis.
The Eya2 enzyme was kindly provided by the laboratory of Dr. Rui Zhao. The 3-O-methyl-fluorescein phosphate (OMFP) substrate and all buffer reagents were purchased from Sigma Aldrich. qHTS Assay Setup: 1. Buffer- 50 mM HEPES pH 7.5, 50 mM NaCl, 5 uM MgCl2, 0.05% BSA, 1 mM DTT. 2. OMFP Stock- 10 mM solution prepared in 100% DMSO and stored in single use aliquots at -20C. Assay Procedure- 1. Dispense 1.5 ul per well of Eya2 at 0.2 uM in black medium binding 1536 well Greiner plate 2. Transfer 23 nl of compound and control compound (EGTA) to plate 3. Incubate at ambient for 10 minutes 4. Dispense 1.5 ul per well of OMFP at 50 uM 5. Incubate at ambient for 10 minutes 6. Read on ViewLux using Excitation = 485 nm, Emission = 525 nm
% is scaled to controls: 0 for no effect and ±100 for the full control effect.

By UniProt entry, the sequences of proteins in these tests, tags left out. Where a name states a change or a piece, a line headed by the entry shows the natural chain unless it says otherwise.
UniProt O00167: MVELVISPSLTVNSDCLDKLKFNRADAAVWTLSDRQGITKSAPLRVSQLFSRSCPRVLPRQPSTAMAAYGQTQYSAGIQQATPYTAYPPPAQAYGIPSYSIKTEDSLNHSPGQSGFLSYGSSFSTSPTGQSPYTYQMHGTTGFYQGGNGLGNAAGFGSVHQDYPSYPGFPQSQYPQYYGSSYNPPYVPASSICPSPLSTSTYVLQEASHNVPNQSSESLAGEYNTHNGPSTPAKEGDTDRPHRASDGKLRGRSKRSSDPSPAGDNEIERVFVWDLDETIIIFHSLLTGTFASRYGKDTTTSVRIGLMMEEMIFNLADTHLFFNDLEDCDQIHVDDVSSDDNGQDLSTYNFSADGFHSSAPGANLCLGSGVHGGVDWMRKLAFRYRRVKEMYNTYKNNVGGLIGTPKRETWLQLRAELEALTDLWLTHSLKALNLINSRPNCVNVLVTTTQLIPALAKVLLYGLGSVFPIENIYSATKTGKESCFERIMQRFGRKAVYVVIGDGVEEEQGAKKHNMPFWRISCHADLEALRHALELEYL

Structure (SMILES) | activity, negative = inhibition
CN(C(=O)Cc1ccc(Cl)c(Cl)c1)[C@@H]1CC[C@]2(CCCO2)C[C@H]1N1CCCC1 | inactive: 2.27%
O=[As](O)(c1cccc(O)c1)c1cccc(O)c1 | inactive: 9.48%
CCCOP(=S)(Nc1nc(N)cc(=O)[nH]1)OCCC | inactive: 25.7%
Cc1ccc(NCCc2c([N+](=O)[O-])cc([N+](=O)[O-])cc2[N+](=O)[O-])cc1 | inactive: 2.02%
COc1cc(C2NCCC3(OCCO3)C2(C)C)cc(OC)c1OC (centres undefined) | inactive: -5.71%
CCOP(=O)(Nc1cccc2ccccc12)OCC | inactive: -1.91%
O=P1(Nc2nc3ccc(Cl)cc3s2)COc2ccccc2O1 (centres undefined) | inactive: -2.61%
CCOc1ccc(C2=NCC(CBr)S2)cc1 (centres undefined) | inactive: 1.36%
CC(C)(C)C(=O)NC(Sc1ccccc1)C(Cl)(Cl)Cl (centres undefined) | inactive: 3.82%
CC(=O)c1ccc(N2CC2c2ccncc2)cc1 (centres undefined) | inactive: 0.743%
Cc1ccccc1CN(C)C(=O)COC(=O)C(O)(c1ccccc1)c1ccccc1 | inactive: -2.46%
C[C@@H]1C=CCP(=O)(Oc2ccccc2)O1 (some centres undefined) | inactive: -11.4%
C[C@H]1OP(=O)(Oc2ccccc2)C[C@@H]2O[C@@H]21 (some centres undefined) | inactive: -14%
CC(=O)Nc1ccc(Oc2c([N+](=O)[O-])cc([N+](=O)[O-])cc2[N+](=O)[O-])cc1 | inactive: 9.4%
O=C(NC1CCS(=O)(=O)C1)NP(=S)(Oc1ccccc1)Oc1ccccc1 (centres undefined) | inactive: -7.52%
CCNC(=S)/N=C(\N)N[N+](=O)[O-] | inactive: 1.66%
c1ccc(-c2nn[nH]n2)c(-c2nn[nH]n2)c1 | inactive: 13.5%
Cc1ccc(NP(=O)(Oc2cccc(C)c2)Oc2cccc(C)c2)nc1 | inactive: 5.38%
CCOC(=O)NC(Sc1ccccc1)C(Cl)(Cl)Cl (centres undefined) | inactive: 6.96%
COC(=O)c1cc2c(s1)N=C(c1ccccc1)N(C)P2(=O)N1CCOCC1 (centres undefined) | inactive: 6.09%
CC(=O)NC(SC(=S)N(CC(C)C)CC(C)C)C(Cl)(Cl)Cl (centres undefined) | inactive: 3.48%
Cc1ccc(OP(=O)(Nc2ccccn2)Oc2ccc(C)cc2)cc1 | inactive: -7.29%
O=C(OC1CN2CCC1CC2)c1ccccc1 (centres undefined) | inactive: -5.64%
CN(C(=O)Cc1ccc(Cl)c(Cl)c1)[C@@H]1CCCC[C@@H]1N1CCCC1 | inactive: -1.97%
CCC(=O)N1C2C3N(C(=O)CC)C1C1N(C(=O)CC)C(C(N1C(=O)CC)N3C(=O)CC)N2C(=O)CC | inactive: 6.73%
CC(NC(=O)COC(=O)C(O)(c1ccccc1)c1ccccc1)c1ccccc1 (centres undefined) | inactive: 0.101%
CN(C)C(=O)Oc1noc2ccccc12 | inactive: -1.23%

Structure (SMILES) | activity, negative = inhibition
O=c1c2cc([N+](=O)[O-])ccc2[nH]c2c([N+](=O)[O-])cc([N+](=O)[O-])cc12 | inactive: 1.45%
CN(C)C1(CNC(=O)c2ccc(Cl)c(S(N)(=O)=O)c2)CCCCC1 | inactive: 3.72%
O=P(Nc1ccccn1)(c1ccc(Br)cc1)c1ccc(Br)cc1 | inactive: -4.38%
O=P(Nc1nc2ccccc2s1)(c1ccccc1)c1ccccc1 | inactive: -21.9%
C[C@H]1OP(=O)(Oc2ccccc2)[C@H](O)[C@H](O)[C@H]1N=[N+]=[N-] (some centres undefined) | inactive: -6.14%
CC(=O)NC(SC(=S)N(C)C)C(Cl)(Cl)Cl (centres undefined) | inactive: 10.3%
O=[N+]([O-])c1ncn(CCn2cnc([N+](=O)[O-])n2)n1 | inactive: 8.26%
O=[N+]([O-])c1ccc(O)c(/C=N/Nc2ccc([N+](=O)[O-])cc2[N+](=O)[O-])c1 | inactive: 14.1%
O=[As](O)(c1ccccc1)c1ccc(O)cc1 | inactive: 15%
Nc1ccc([As](=O)(O)c2ccc([N+](=O)[O-])cc2)cc1 | inactive: 11.9%
C(Cc1nn[nH]n1)Cc1nn[nH]n1 | inactive: 3.66%
O=C(OC1CN2CCC1CC2)c1cccc(Cl)c1 (centres undefined) | inactive: 21.6%
O=P(Nc1nccs1)(c1ccccc1)c1ccccc1 | inactive: 3.01%
CC(C)C(=O)NC(Sc1ccccc1)C(Cl)(Cl)Cl (centres undefined) | inactive: -23.6%
c1nnnn1CCn1cnnn1 | inactive: 17.1%
COc1ccc(C2=NCC(CBr)S2)cc1 (centres undefined) | inactive: -2.47%
CC(=O)N1C2C3N(C(C)=O)C1C1N(C(C)=O)C(C(N1C(C)=O)N3C(C)=O)N2C(C)=O | inactive: 10.7%
O=[N+]([O-])c1cccc2n[nH]nc12 | inactive: 22%
Cc1ccc(NP(=O)(Oc2ccccc2)Oc2ccccc2)nc1 | inactive: -2.38%
O=[N+]([O-])c1cc([N+](=O)[O-])c(CCNc2ccccc2)c([N+](=O)[O-])c1 | inactive: -2.1%
CCc1nc2c(n1)c1c(non1O)c1c2no[n+]1[O-] | inactive: 20.1%
Nc1ccc([As](=O)(O)c2ccc(N)cc2)cc1 | inactive: -15.6%
C[N+]1=C2C=CC=CC=C2SC12C([N+](=O)[O-])=CC([N+](=O)[O-])=C[C-]2[N+](=O)[O-] (centres undefined) | inactive: -9.69%
CCN(/C(=N/P(=O)(N1CCOCC1)N1CCOCC1)N1CCOCC1)c1ccc(OC)cc1 | inactive: 9.41%
CC(C)=N/N=C(\N)N[N+](=O)[O-] | inactive: 6.25%
CN(C)C(=O)OCCc1n(C)cc[n+]1C | inactive: 0.503%
CC1CCN(C(=O)Oc2c(Cl)cc(Cl)c3cccnc23)CC1 | inactive: -15.6%

Structure (SMILES) | activity, negative = inhibition
O=C(Nc1cc([As](=O)(O)O)ccc1O)c1ccccc1 | inactive: -4.91%
CC(C)(C)C(=O)NC(Sc1ccncn1)C(Cl)(Cl)Cl (centres undefined) | inactive: -9.61%
O=[N+]([O-])c1ncn(CCn2ncnc2[N+](=O)[O-])n1 | inactive: 0.38%
O=[N+]([O-])c1cccc(NC2=NCC(CBr)S2)c1 (centres undefined) | inactive: -1.92%
O=C(O)CNc1ccc([As](=O)(O)O)cc1 | inactive: 11.6%
O=C(O)c1ccccc1[As](=O)(O)O | inactive: -1.18%
CC(=O)Nc1ccc([As](=O)(O)O)cc1 | inactive: -13.9%
O=P(Nc1nc2ccc(Cl)cc2s1)(c1ccccc1)c1ccccc1 | inactive: -4.16%
Cc1cc(SC(NC(=O)c2ccc(F)cc2)C(Cl)(Cl)Cl)ncn1 (centres undefined) | inactive: -19.4%
CN(C(=O)Cc1ccc(Cl)c(Cl)c1)[C@H]1CCCC[C@@H]1N1CCCC1 | inactive: 1.86% and inactive: 3.75%
Cc1ccc(NP(=O)(Oc2ccccc2F)Oc2ccccc2F)nc1 | inactive: -27.1%
O=[N+]([O-])c1cc([N+](=O)[O-])c(CCN2CCOCC2)c([N+](=O)[O-])c1 | inactive: -25%
CCN(N=Nc1nonc1N)c1nonc1N | inactive: -2.02%
Nc1cccc2ccc([As](=O)(O)O)cc12 | inactive: 19.5%
NC(=O)c1cc([N+](=O)[O-])cc([N+](=O)[O-])c1N | inactive: 9.15%
CN(C(=O)Cc1ccc(Cl)c(Cl)c1)[C@H]1CCCC[C@H]1N1CCCC1 | inactive: 15.9%
Cc1ccc(N/C(=N/P(=O)(N2CCOCC2)N2CCOCC2)N2CCOCC2)cc1 | inactive: 1.03%
COc1ccccc1OP(=O)(Nc1ccc(C)cn1)Oc1ccccc1OC | inactive: -4.33%
Cc1ccc(OP(=O)(Nc2nccs2)Oc2ccc(C)cc2)cc1 | inactive: 4.72%
Clc1ccc(Cl)c(NC2=NCC(CBr)S2)c1 (centres undefined) | inactive: 3.65%
CN1CCCC(OC(=O)C(c2ccccc2)c2ccccc2)C1 (centres undefined) | inactive: 3.53%
CC(C)CC(=O)NC(Sc1ccc(Cl)cc1)C(Cl)(Cl)Cl (centres undefined) | inactive: 4.56%
Oc1ccccc1CNc1ccccn1 | inactive: 7.53%
Cc1c2non([O-])c-2c(C)[n+](=O)[n+]1[O-] | inactive: -0.135%
O=C(NC(Sc1ccncn1)C(Cl)(Cl)Cl)c1ccccc1 (centres undefined) | inactive: 1.58%

From PubChem BioAssay AID488837 (National Center for Advancing Translational Sciences (NCATS), 2010)
